# Assay results published in paper PMC9234963, “Optimizing Shape Complementarity Enables the Discovery of Potent Tricyclic BCL6 Inhibitors” (Journal of Medicinal Chemistry, 2022).
# Values joined by “and” are separate entries in the source; they are usually repeats but may differ in a detail not shown here. Equal values may be shown once. Read-outs that look alike come from different tables or passages of the source.
# Assays:
# [1] = target: T1, human BCL6 BTB domain (Homo sapiens, UniProt P41182); details: for BCL6 TR-FRET mean pIC50: mean of replicates; for LE: ligand efficiency, 1.4*(pIC50)/HAC from TR-FRET; for LLE: lipophilic ligand efficiency from TR-FRET pIC50 and MoKa logD7.4; for fold potency improvement over 5a: compared with 5a
# [2] = target: T1, human BCL6 BTB domain; assay: biochemical; details: BCL6 TR-FRET IC50 individual replicates, single replicates; 10 nM BCL6 for early examples, else 1 nM
# [3] = read-out: BCL6 TR-FRET IC50, geometric mean of replicates
# [4] = read-out: BCL6 TR-FRET IC50 individual replicates, single replicates, 10 nM BCL6 for early examples, else 1 nM
Structure (SMILES),LE [1],LLE [1],other results
"Cn1c(=O)c2c(c3cc(Nc4ccnc(Cl)c4C#N)ccc31)NC(C1CC1)CCO2 (stereo not shown) [Compound 11a, 2-Chloro-4-((2-cyclopropyl-7-methyl-6-oxo-1,2,3,4,6,7-hexahydro-[1,4]oxazepino[2,3-c]quinolin-10-yl)amino)nicotinonitrile]",,,"BCL6 TR-FRET mean pIC50 [1]: 7.11; IC50 [1, 3]: 78 nM; IC50 [1, 4]: 75 nM; IC50 [2]: 69 nM and 93 nM"
"CCNc1c(C)c(=O)n(C)c2ccc(Nc3ccnc(Cl)c3C#N)cc12 [Compound 4, 2-Chloro-4-((4-(ethylamino)-1,3-dimethyl-2-oxo-1,2-dihydroquinolin-6-yl)amino)nicotinonitrile]",0.28 and 0.2829,2.15 and 2.2 and 2.153,fold reduction in biochemical potency ([1]; 3-methyl compound 4 compared with 2): 4 fold
"CC(C)C1CCOc2c(c3cc(Nc4ccnc(Cl)c4C#N)ccc3n(C)c2=O)N1 (stereo not shown) [Compound 11d, 2-Chloro-4-((2-isopropyl-7-methyl-6-oxo-1,2,3,4,6,7-hexahydro-[1,4]oxazepino[2,3-c]quinolin-10-yl)amino)nicotinonitrile]",0.26 and 0.2569,2.21 and 2.206,
CCNc1cc(=O)[nH]c2ccc(Nc3ccnc(Cl)c3C#N)cc12 [Compound 2],0.34 and 0.3432,3.48 and 3.5 and 3.484,
"CC1CCc2c(c3cc(Nc4ccnc(Cl)c4C#N)ccc3n(C)c2=O)N1 (stereo not shown) [Compound 5b, 2-Chloro-4-((2,6-dimethyl-5-oxo-1,2,3,4,5,6-hexahydrobenzo[h][1,6]-naphthyridin-9-yl)amino)nicotinonitrile]",0.29 and 0.2946,2.88 and 2.9 and 2.882,fold potency improvement over 5a [1]: > 3 fold
"CC1COc2c(c3cc(Nc4ccnc(Cl)c4C#N)ccc3n(C)c2=O)N1 (stereo not shown) [Compound 6, 2-Chloro-4-((2,6-dimethyl-5-oxo-2,3,5,6-tetrahydro-1H-[1,4]oxazino[2,3-c]quinolin-9-yl)amino)nicotinonitrile]",0.30 and 0.3047,3.78 and 3.8 and 3.776,fold potency improvement over 5a [1]: > 3 fold
"CC1CC(C)(C)Oc2c(c3cc(Nc4ccnc(Cl)c4C#N)ccc3n(C)c2=O)N1 (stereo not shown) [Compound 13b, 2-Chloro-4-((2,4,4,7-tetramethyl-6-oxo-1,2,3,4,6,7-hexahydro-[1,4]oxazepino[2,3-c]quinolin-10-yl)amino)nicotinonitrile]",0.23,1.3,
"CCC1CCOc2c(c3cc(Nc4ccnc(Cl)c4C#N)ccc3n(C)c2=O)N1 (stereo not shown) [Compound 11b, 2-Chloro-4-((2-ethyl-7-methyl-6-oxo-1,2,3,4,6,7-hexahydro-[1,4]oxazepino[2,3-c]quinolin-10-yl)amino)nicotinonitrile]",0.30 and 0.2999,3.21 and 3.2 and 3.213,
"Cn1c(=O)c2c(c3cc(Nc4ccnc(Cl)c4C#N)ccc31)NC(C1CCC1)CCO2 (stereo not shown) [Compound 11c, 2-Chloro-4-((2-cyclobutyl-7-methyl-6-oxo-1,2,3,4,6,7-hexahydro-[1,4]oxazepino[2,3-c]quinolin-10-yl)amino)nicotinonitrile]",0.24 and 0.2423,2.07 and 2.1 and 2.065,
Cn1c(=O)cc(NC(C)(C)c2ncc(C3CC3)cn2)c2cc(Nc3ccnc(Cl)c3C#N)ccc21 [Compound 3],0.30 and 0.3033,4.58 and 4.6 and 4.583,
"Cn1c(=O)c2c(c3cc(Nc4ccnc(Cl)c4C#N)ccc31)N[C@H](C1CC1)CCO2 [Compound 12b, (S)-2-Chloro-4-((2-cyclopropyl-7-methyl-6-oxo-1,2,3,4,6,7-hexahydro-[1,4]oxazepino[2,3-c]quinolin-10-yl)amino)nicotinonitrile]",,,"BCL6 TR-FRET mean pIC50 [1]: 5.95; IC50 [1, 3]: 1120 nM and 1100 nM; IC50 [1, 4]: 1110 nM; IC50 [2]: 852 nM and 1480 nM"
"N#Cc1c(Nc2ccc3[nH]c(=O)c4c(c3c2)NCCC4)ccnc1Cl [Compound 5a, 2-Chloro-4-((5-oxo-1,2,3,4,5,6-hexahydrobenzo[h][1,6]naphthyridin-9-yl)amino)nicotinonitrile]",0.29 and 0.2919,3.11 and 3.1 and 3.113,
"Cn1c(=O)c2c(c3cc(Nc4ccnc(Cl)c4C#N)ccc31)NC(C(F)F)CCO2 (stereo not shown) [Compound 11e, 2-Chloro-4-((2-(difluoromethyl)-7-methyl-6-oxo-1,2,3,4,6,7-hexahydro-[1,4]oxazepino[2,3-c]quinolin-10-yl)amino)nicotinonitrile]",0.27 and 0.2657,3.69 and 3.7 and 3.694,
"Cn1c(=O)c2c(c3cc(Nc4ccnc(Cl)c4C#N)ccc31)NCCCO2 [Compound 10, 2-Chloro-4-((7-methyl-6-oxo-1,2,3,4,6,7-hexahydro-[1,4]oxazepino[2,3-c]quinolin-10-yl)amino)nicotinonitrile]",0.25 and 0.2452,2.83 and 2.8 and 2.828,
"C[C@H]1COCc2c(c3cc(Nc4ccnc(Cl)c4C#N)ccc3n(C)c2=O)N1 [Compound 8, (S)-2-Chloro-4-((2,7-dimethyl-6-oxo-1,2,3,5,6,7-hexahydro-[1,4]oxazepino[6,5-c]quinolin-10-yl)amino)nicotinonitrile]",0.28 and 0.2825,3.95 and 4.0,
"Cn1c(=O)c2c(c3cc(Nc4ccnc(Cl)c4C#N)ccc31)N[C@@H](C1CC1)CCO2 [Compound 12a, (R)-2-Chloro-4-((2-cyclopropyl-7-methyl-6-oxo-1,2,3,4,6,7-hexahydro-[1,4]oxazepino[2,3-c]quinolin-10-yl)amino)nicotinonitrile]",,,IC50 [2]: 27.4 nM and 26.7 nM and 34.3 nM and 62.4 nM and 42.4 nM and 53.1 nM
"CC1Nc2c(c(=O)n(C)c3ccc(Nc4ccnc(Cl)c4C#N)cc23)OCC12CC2 (stereo not shown) [Compound 13d, 2-Chloro-4-((2′,7′-dimethyl-6′-oxo-1′,2′,6′,7′-tetrahydro-4′H-spiro[cyclopropane-1,3′-[1,4]oxazepino[2,3-c]quinolin]-10′-yl)amino)nicotinonitrile]",0.27 and 0.2706,2.9 and 2.899,
